Laboratory results reported in patent US8435981B2, “2-(heterocyclylbenzyl)pyridazinone derivatives” (Merck Patent Gesellschaft mit Beschränkter Haftung, priority 2006, dated 2013).

Protein sequences, listed by entry. Tags and fused reporters are not part of them. Residues count along the entry.
UniProt P08581, 974-1390 limits assumed: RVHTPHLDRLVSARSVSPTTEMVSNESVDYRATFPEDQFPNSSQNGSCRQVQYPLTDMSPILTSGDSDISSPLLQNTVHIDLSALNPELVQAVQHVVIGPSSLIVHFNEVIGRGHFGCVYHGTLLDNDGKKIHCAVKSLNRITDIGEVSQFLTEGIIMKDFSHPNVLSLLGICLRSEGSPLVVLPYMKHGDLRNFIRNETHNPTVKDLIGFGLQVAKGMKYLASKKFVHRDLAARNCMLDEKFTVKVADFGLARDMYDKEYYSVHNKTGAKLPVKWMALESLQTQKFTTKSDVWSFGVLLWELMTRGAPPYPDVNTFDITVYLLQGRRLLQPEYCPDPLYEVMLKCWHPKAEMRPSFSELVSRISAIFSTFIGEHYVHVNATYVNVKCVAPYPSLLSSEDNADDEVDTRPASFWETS

Target: Met kinase (Homo sapiens, UniProt P08581)
Experiment: Met kinase inhibition, enzyme assay (flashplate method)
Format: biochemical
Set-up: 6His (N); purchased Upstate 14-526; host or cells: Sf21 insect cells (S. frugiperda), baculovirus
Method: Flashplate Method (Met Kinase)
The test plates used are 96-well Flashplate® microtitre plates from Perkin Elmer (Cat. No. SMP200). The components of the kinase reaction described below are pipetted into the assay plate. The Met kinase and the substrate poly Ala-Glu-Lys-Tyr, (pAGLT, 6:2:5:1), are incubated for 3 hrs at room temperature with radioactively labelled ^33P-ATP in the presence and absence of test substances in a total volume of 100 μl. The reaction is terminated using 150 μl of a 60 mM EDTA solution. After incubation for a further 30 min at room temperature, the supernatants are filtered off with suction, and the wells are washed three times with 200 μl of 0.9% NaCl solution each time. The measurement of the bound radioactivity is carried out by means of a scintillation measuring instrument (Topcount NXT, Perkin-Elmer).
The full value used is the inhibitor-free kinase reaction. This should be approximately in the range 6000-9000 cpm. The pharmacological zero value used is staurosporin in a final concentration of 0.1 mM. The inhibitory values (IC50) are determined using the RS1_MTS program.
Kinase reaction conditions per well:
10 μl of substance to be tested in assay buffer with 10% of DMSO
10 μl of ATP (final concentration 1 μM cold, 0.35 μCi of ^33P-ATP)
50 μl of Met kinase/substrate mixture in assay buffer;

## Cc1cnc(-c2cccc(Cn3nc(-c4cc(F)cc(F)c4)ccc3=O)c2)o1 [Compound A13, 6-(3,5-difluorophenyl)-2-[3-(5-methyloxazol-2-yl)benzyl]-2H-pyridazin-3-one]
  IC50: 10 to 1000 nM
